Assay results taken from US4897426A, “Method for blocking calcium channels” (New York University, priority 1989, dated 1990).

Columns and labels:
[1] = system: rat brain synaptic membrane vesicles; conditions: 10^-1 M; cited from earlier work
[2] = system: low-threshold calcium channels (LTCC); assay: Intracellular recording of low-threshold calcium rebound spike in inferior olivary cells of brain slices (LTCC blockage); type: cell-based, guinea pig

| Compound | Inhibition of calcium influxes [1] | Relative effectiveness vs butanol, LTCC inhibition ([2]; FIG. 5, graphs E through H (pentanol 0.1% or 0.05%, butanol 0.25%), as observed, not adjusted for injected current) | Preferred highest molar concentration / operative range for substantial and total blockage of LTCC: To About ([2]; complete blockage of LTCC) | Relative effectiveness vs butanol, taking injected current into account ([2]; injected current 0.5 nA in alcohol-exposed cells, 0.25 nA in controls) | Inhibition of LTCC compared with propanol ([2]; pentanol at 5-fold lower concentration, FIG. 5, H with E) |
| --- | --- | --- | --- | --- | --- |
| CCCCO [butanol] | inhibited calcium influxes |  |  |  |  |
| CCCCCO [pentanol] |  | more than five times | ~10^-7 M | over ten times | more effective than propanol |
